Reference: ChEMBL document CHEMBL3882247, “Use of dibenzofuranone derivatives to inhibit kinases” (2013)

Protein sequences, listed by entry. Tags and fused reporters are not part of them.
UniProt P19784, whole entry: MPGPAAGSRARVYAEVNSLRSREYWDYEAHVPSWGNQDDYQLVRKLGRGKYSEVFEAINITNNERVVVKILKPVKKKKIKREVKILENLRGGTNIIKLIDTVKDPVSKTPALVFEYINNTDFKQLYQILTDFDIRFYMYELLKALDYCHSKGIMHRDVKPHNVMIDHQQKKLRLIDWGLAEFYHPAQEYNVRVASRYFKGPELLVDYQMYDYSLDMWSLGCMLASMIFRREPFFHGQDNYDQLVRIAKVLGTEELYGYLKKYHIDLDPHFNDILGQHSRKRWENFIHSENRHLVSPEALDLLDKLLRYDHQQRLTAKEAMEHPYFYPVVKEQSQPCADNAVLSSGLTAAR
UniProt P67870, whole entry: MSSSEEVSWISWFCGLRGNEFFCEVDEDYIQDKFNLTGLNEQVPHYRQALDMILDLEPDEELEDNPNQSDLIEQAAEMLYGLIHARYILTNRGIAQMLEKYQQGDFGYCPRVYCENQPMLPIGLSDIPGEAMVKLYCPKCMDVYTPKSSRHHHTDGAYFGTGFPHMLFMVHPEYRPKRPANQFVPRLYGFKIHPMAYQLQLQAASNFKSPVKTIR
UniProt P68400, whole entry: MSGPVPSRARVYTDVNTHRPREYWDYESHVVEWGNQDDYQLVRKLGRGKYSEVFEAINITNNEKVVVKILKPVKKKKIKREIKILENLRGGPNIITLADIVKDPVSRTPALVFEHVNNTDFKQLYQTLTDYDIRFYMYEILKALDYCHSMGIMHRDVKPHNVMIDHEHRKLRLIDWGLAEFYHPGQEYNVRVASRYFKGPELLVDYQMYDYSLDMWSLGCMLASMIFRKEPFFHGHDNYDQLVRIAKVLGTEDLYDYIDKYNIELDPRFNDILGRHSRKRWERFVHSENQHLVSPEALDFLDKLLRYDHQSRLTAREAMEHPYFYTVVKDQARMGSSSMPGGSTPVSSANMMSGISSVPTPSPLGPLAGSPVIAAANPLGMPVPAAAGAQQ

Target: Casein kinase II (Homo sapiens, UniProt P19784+P67870+P68400)
Experiment: Inhibition of CK2 (unknown origin) using REEETEEE as substrate after 15 mins in presence of [gamma-32P]-ATP
Format: protein-complex assay

In the case of Cc1cc(O)c2c(c1)C(=O)c1cc(O)cc(O)c1C2=O [EMODIN], the IC50 is reported as 1000 nM.
